We go through one molecule from ChEMBL document CHEMBL4002585, “Novel CLK1 inhibitors based on N-aryloxazol-2-amine skeleton - A possible way to dual VEGFR2 TK/CLK ligands” (Eur J Med Chem, 2017).

By UniProt entry, the sequences of proteins in these tests, tags left out. Where a name states a change or a piece, a line headed by the entry shows the natural chain unless it says otherwise.
UniProt P49761: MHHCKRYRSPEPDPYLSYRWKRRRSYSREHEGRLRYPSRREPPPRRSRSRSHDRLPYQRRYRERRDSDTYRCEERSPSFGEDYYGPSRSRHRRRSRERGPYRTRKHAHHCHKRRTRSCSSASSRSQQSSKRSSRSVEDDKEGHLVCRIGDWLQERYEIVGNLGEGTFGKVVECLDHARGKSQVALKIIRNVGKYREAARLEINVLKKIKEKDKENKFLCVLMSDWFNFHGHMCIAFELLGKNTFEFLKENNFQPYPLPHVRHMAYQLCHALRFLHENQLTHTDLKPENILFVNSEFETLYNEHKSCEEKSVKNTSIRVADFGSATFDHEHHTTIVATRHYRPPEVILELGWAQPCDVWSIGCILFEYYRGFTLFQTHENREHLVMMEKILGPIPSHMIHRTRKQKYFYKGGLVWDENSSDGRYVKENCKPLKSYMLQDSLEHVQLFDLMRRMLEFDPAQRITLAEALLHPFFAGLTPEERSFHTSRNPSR

For this assay, the target named is Dual specificity protein kinase CLK3 (Homo sapiens, UniProt P49761). Put plainly: Inhibition of human CLK3 (275 to 632 residues) expressed in Escherichia coli BL21(DE3) preincubated for 10 mins followed by substrate addition by pyruvate kinase and lactate dehydrogenase coupled enzyme assay.

Consider `CCOC(=O)c1c(C(C#N)=CN)c2ccc(Cl)c(Cl)c2n1C`, for which the IC50 (in general, the midpoint of a concentration-inhibition curve) worked out at 530 nM.
